Source: article PMC5148012, “HbS Binding to GP1bα Activates Platelets in Sickle Cell Disease” (PLoS ONE, 2016)

Sequences of proteins named here, by UniProt entry; tags and fusion partners are left off. Residues count along the entry.
UniProt P07359, 17-531: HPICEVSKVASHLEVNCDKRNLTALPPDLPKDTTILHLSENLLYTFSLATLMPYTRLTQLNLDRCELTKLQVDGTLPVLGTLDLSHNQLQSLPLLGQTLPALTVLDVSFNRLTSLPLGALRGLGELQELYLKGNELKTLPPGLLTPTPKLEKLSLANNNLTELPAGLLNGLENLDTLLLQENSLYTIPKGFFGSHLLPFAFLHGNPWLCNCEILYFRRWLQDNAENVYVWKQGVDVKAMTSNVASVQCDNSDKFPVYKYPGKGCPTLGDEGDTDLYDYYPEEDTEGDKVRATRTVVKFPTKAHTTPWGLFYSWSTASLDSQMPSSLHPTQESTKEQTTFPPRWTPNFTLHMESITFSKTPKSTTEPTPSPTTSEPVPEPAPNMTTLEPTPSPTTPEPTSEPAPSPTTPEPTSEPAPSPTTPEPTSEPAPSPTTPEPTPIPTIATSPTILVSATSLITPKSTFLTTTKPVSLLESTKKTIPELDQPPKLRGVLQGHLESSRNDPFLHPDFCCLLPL

Legend:
[1] = biological target: T1, glycocalicin (extramembranous proteolytic fragment of platelet GP1bα) (human (endogenous in platelets), UniProt P07359 17-531); experiment: SPR; BIAcore T200; glycocalicin covalently coupled to C1 sensor chip via aldehyde coupling to 1200 RU; HbS perfused at 30 μL/min; 10 mM HEPES, 150 mM NaCl, 0.05% Tween 20, pH 7.4, 25°C; steady state affinity model; details: both partners purified
T1 construct: platelet glycoprotein Ib alpha (GP1bα), human; glycocalicin, the extramembranous proteolytic fragment released from sonicated platelets; In the functional rows this molecule stands for GP1bα on the surface of human platelets; also called extramembranous part of GP1bα; source: purified from outdated human platelets (wheat germ lectin agarose, HiTrap DEAE-FF ion exchange)

[2] = biological target: T1, glycocalicin (extramembranous …); experiment: cell-based or functional assay

Kd [1]: ~10.5 µM | HbS-mediated phosphorylation of Akt in washed human platelets with the GP1bα peptide AA1-50 (0.5 μM), fold-change [2]: 1.32 fold-change | HbS-mediated phosphorylation of ERK in washed human platelets with the GP1bα peptide AA1-50 (0.5 μM), fold-change [2]: 2.17 fold-change | HbS-mediated phosphorylation of Lyn in washed human platelets with the GP1bα peptide AA1-50 (0.5 μM), fold-change [2]: 1.06 fold-change | HbS-mediated phosphorylation of PI3K in washed human platelets with the GP1bα peptide AA1-50 (0.5 μM), fold-change [2]: 0.711 fold-change | phosphorylation of Akt in washed human platelets (immunoblot, phospho/non-phospho, fold-change), HbS 0.37-4.5 μM; maximum at 1.5 μM HbS [2]: 2.45 fold-change | phosphorylation of ERK in washed human platelets (immunoblot, phospho/non-phospho, fold-change), HbS 0.37-4.5 μM; maximum at 1.12 μM HbS [2]: 2.51 fold-change | phosphorylation of Lyn in washed human platelets (immunoblot, ratio p-Lyn/Lyn, fold-change), HbS 0.37-4.5 μM; maximum at 1.5 μM HbS [2]: 19.6 fold-change | phosphorylation of PI3K in washed human platelets (immunoblot, phospho/non-phospho, fold-change), HbS 0.37-4.5 μM; maximum at 1.12 μM HbS [2]: 53.4 fold-change
B1: sickle hemoglobin (HbS) (complex)
chain 1: not shown
chain 2: not shown
